Biological target: Lysine-specific histone demethylase 2 (Homo sapiens, UniProt Q8NB78)
Assay: Inhibition of N-terminal GST-tagged recombinant full length human LSD2 expressed in Baculovirus using Bio- H3K4me2 (1 to 24 residues) as substrate incubated for 1 hr by TR-FRET assay

Structure (SMILES): COc1ccc(-c2c(-c3ccc(C#N)c(F)c3)nc(N3CCC(N)CC3)n(C)c2=O)cc1F [PULRODEMSTAT]
- IC50: > 20 µM

Reference: ChEMBL document CHEMBL6074676, “Optimization and Biological Evaluation of Novel 1H-Pyrrolo[2,3-c]pyridin Derivatives as Potent and Reversible Lysine Specific Demethylase 1 Inhibitors for the Treatment of Acute Myelogenous Leukemia” (J Med Chem, 2024)
